Source: patent US9504675B2, “Alpha-ketoheterocycles and methods of making and using” (The Scripps Research Institute, priority 2011, dated 2016)

Test system: mice with CCI neuropathic pain
Assay: Chronic constriction injury (CCI) of the sciatic nerve: mechanical (von Frey) and cold (acetone) allodynia
Format: in vivo, mouse (C57BL/6)
Settings: 50 mg/kg p.o., 10 days after CCI, vs vehicle
Description: Surgery was performed as follows. Briefly, the right hind leg of male C57BL/6 mice was shaved and swabbed with betadine solution and ethanol. Posterior to the femur, an incision was made and the sciatic nerve was visualized and isolated, following muscle separation. The nerve was ligated twice with 5-0 (1.0 metric) black silk braided suture (Surgical Specialties Corporation, Reading, Pa.). The surrounding muscle and skin were then sutured with 6-0 nylon. Mice were recovered in a heated cage and observed for approximately 2 h before being returned to the vivarium.
Allodynia was initially tested 10 days after surgery. Male C57BL/6 mice were habituated to the test apparatus for 2 h on the 2 days prior to testing. […] Mechanical allodynia was assessed with von Frey filaments (North Coast Medical, Morgan Hill, Calif.), using the “up-down” method. […] Once a positive response was detected, sequentially lighter-weight filaments were used to assess paw withdrawal threshold. […] Total time lifting or clutching each paw was recorded, with a maximum time of 20 s.
Data Analyses: Behavioral data were analyzed using a two-way mixed factorial analysis of variance (ANOVA) for each paw, with drug treatment as the between subjects measure, and time as the within subjects measure. […]

In the case of `O=C(c1ncc(-c2ccccn2)o1)C1CCc2cc(Oc3ccccc3)ccc2C1` (centres unmarked) [Compound 12, (6-Phenoxy-1,2,3,4-tetrahydronaphthalen-2-yl)(5-(pyridin-2-yl)oxazol-2-yl)methanone], the “cold allodynia (acetone-induced), paws ipsilateral to CCI surgery” value is reported as “significantly attenuated” and the “mechanical allodynia (von Frey), paws ipsilateral to CCI surgery” value is reported as “significantly attenuated”.
